Tests used:
Format in all cases: binding
His-BIR3 (241-356, XIAP) = biological target: T1, His-BIR3 (241-356, XIAP) (Homo sapiens, UniProt P98170); assay: XIAP-BIR3/SMAC Homogeneous Time Resolved Fluorescence (HTRF) Assay; conditions: Table 4
T1 construct: additions of His-BIR3 (241-356, XIAP), fluorescein labeled SMAC peptide

Amino acid sequences for entries named in this document (tags omitted). Residues count along the entry.
UniProt P98170, 241-356: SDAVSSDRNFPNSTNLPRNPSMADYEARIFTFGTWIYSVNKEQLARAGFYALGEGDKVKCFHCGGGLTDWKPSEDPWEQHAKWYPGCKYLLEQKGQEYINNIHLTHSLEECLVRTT
UniProt P98170, 125-356 C202A/C213G: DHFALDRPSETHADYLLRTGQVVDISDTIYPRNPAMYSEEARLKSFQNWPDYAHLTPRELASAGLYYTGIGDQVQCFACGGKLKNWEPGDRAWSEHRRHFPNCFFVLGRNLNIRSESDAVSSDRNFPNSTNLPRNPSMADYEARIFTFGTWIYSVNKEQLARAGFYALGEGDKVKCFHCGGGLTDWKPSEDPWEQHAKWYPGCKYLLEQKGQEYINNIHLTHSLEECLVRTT
UniProt P98170, 124-240 C202A/C213G: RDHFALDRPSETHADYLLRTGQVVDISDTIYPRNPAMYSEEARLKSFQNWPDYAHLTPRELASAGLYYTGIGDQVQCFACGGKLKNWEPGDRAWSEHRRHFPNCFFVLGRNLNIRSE

[1] = biological target: T2, His-BIR2-3 (125-356, C202A/C213G, XIAP) (Homo sapiens, UniProt P98170, C202A/C213G); assay: XIAP-BIR2-3 Dimeric SMAC Peptide Homogeneous Time Resolved Fluorescence (HTRF) Assay; conditions: XIAP BIR2-3, HTRF, Table 4
T2 construct: additions of His-BIR2-3 (125-356, C202A/C213G, XIAP), fluorescein labeled dimeric SMAC peptide

[2] = biological target: N-His-Tb-BIR3(241-356, XIAP) (Homo sapiens, UniProt P98170); assay: XIAP-BIR3 SMAC Peptide Fluorescence Polarization Assay (FPA)
[3] = biological target: T3, XIAP His-BIR2 (124-240/C202A/C213G) (Homo sapiens, UniProt P98170, C202A/C213G); assay: XIAP-BIR2/SMAC Peptide AlphaScreen Assay; conditions: Table 2
T3 construct: additions of His-BIR2 (124-240/C202A/C213G), Biotinylated SMAC peptide
Description: A. XIAP-BIR2/SMAC Peptide AlphaScreen Assay Assays were performed in white, flat-bottom, 384-well ProxiPlates (Perkin Elmer). […] The reaction was incubated at room temperature for 60 minutes. After 60 minutes, 2.5 μL of Alphascreen detection reagent (Perkin Elmer) was added to the reaction mixture and incubated at room temperature in the dark for 120 minutes. The Alphascreen signal generated by the reaction was detected on the Envision Plate Reader. […] The final concentration of reagents in the assay was 50 nM His-BIR2 (124-240/C202A/C213G), 50 nM Biotinylated SMAC peptide, 4 μg/mL Alphascreen detection reagents, and 0.5% DMSO. Dose response curves were generated to determine the concentration required for inhibiting 50% of kinase activity (IC50). Compounds were dissolved at 10 mM in dimethylsulfoxide (DMSO) and evaluated at eleven concentrations. IC50 values were derived by non-linear regression analysis.

| Structure (SMILES) | IC50 (His-BIR3 (241-356, XIAP)) [nM] | IC50 [1] [nM] | IC50 [2] [nM] | IC50 [3] [nM] |
| --- | --- | --- | --- | --- |
| CN[C@@H](C)C(=O)N[C@H](C(=O)N1C[C@@H]2C[C@H]1C(=O)N[C@@H](Cc1ccc3ccccc3c1)C(=O)N[C@@H](C(=O)O)Cc1ccc(cc1)OCc1cn(nn1)[C@H]1C[C@@H](C(=O)N[C@@H](Cc3ccc4ccccc4c3)C(=O)N[C@@H](C(=O)O)Cc3ccc(cc3)OCc3cn2nn3)N(C(=O)[C@@H](NC(=O)[C@H](C)NC)C(C)(C)C)C1)C(C)(C)C [Compound 1010] | 10 to 100 | > 10 |  |  |
| CN[C@@H](C)C(=O)N[C@H](C(=O)N1C[C@@H]2C[C@H]1C(=O)N[C@@H](Cc1ccc3ccccc3c1)C(=O)N[C@H](C(=O)O)Cc1ccc(cc1)OCc1cn(nn1)[C@H]1C[C@@H](C(=O)N[C@@H](Cc3ccc4ccccc4c3)C(=O)N[C@H](C(=O)O)Cc3ccc(cc3)OCc3cn2nn3)N(C(=O)[C@@H](NC(=O)[C@H](C)NC)C(C)(C)C)C1)C(C)(C)C [Compound 127] |  |  | < 50 | < 2000 |
| CN[C@@H](C)C(=O)N[C@H](C(=O)N1C[C@@H]2C[C@H]1C(=O)N[C@@H](Cc1ccc3ccccc3c1)C(=O)N[C@H](C(=O)O)Cc1ccc(cc1)OCc1cn(nn1)[C@H]1C[C@@H](C(=O)N[C@@H](Cc3ccc4ccccc4c3)C(=O)N[C@H](C(=O)O)Cc3ccc(cc3)OCc3cn2nn3)N(C(=O)[C@@H](NC(=O)[C@H](C)NC)C2CCCCC2)C1)C1CCCCC1 [Compound 128] |  |  | 50 to 100 | < 2000 |

Source: patent publication US20140309265A1, “MACROCYCLIC COMPOUNDS FOR INHIBITION OF INHIBITORS OF APOPTOSIS” (Ensemble Therapeutics, priority 2011, published 2014)
